The text below walks through data of paper PMC10974275, “Pharmacokinetic Interaction of Kratom and Cannabidiol in Male Rats” (Pharmaceutics, 2024).

Data set [1] in a line: Single-dose pharmacokinetics of concomitant cannabidiol product and kratom product. Type of data set: in vivo, male Sprague-Dawley rats. The conditions noted are these: minor kratom alkaloid/metabolite in plasma, n = 5, mean ± SEM. How it is done:
Male Sprague-Dawley rats (weight 250 ± 25 g) were obtained from Envigo (Indianapolis, IN, USA) with indwelling jugular vein catheters. Animals were acclimated for ≥72 h in a temperature- and humidity-controlled vivarium on a 12 h light/dark cycle. All studies were approved by the University of Florida’s Institutional Animal Care and Use Committee (IACUC) and carried out in accordance with Association for Assessment and Accreditation of Laboratory Animal Care International (AAALAC) and National Institute of Health (NIH) guidelines. In the single-dose studies, rats were fasted for 10 h prior to dosing and an additional 2 h post-dose.
For the single-dose study, rats were pretreated with 50 mg/kg cannabidiol by oral gavage and, after 30 min, were dosed with 0.8 mL/kg OPMS Gold solution. A period of 30 min was observed between doses to reduce the likelihood of interactions between the formulations in the stomach. Rats were connected to an automatic blood collection system (BASi, West Lafayette, IN, USA), and blood samples were taken pre-kratom product dose and 0.08, 0.17, 0.25, 0.5, 1, 2, 3, 4, 6, 8, 12, 18, 24, 30, 36, 42, and 48 h after kratom product dose administration. […]
Samples were analyzed using previously validated ultraperformance liquid chromatography-tandem mass spectrometry (UPLC-MS/MS) methods for the quantification of cannabinoids and alkaloids in rat plasma. […]
For the cannabinoid bioanalytical method, a 1.7 µm, 2.1 x 100 mm C18 BEH column was utilized with a pre-column of the same chemistry (Waters, Milford, MA, USA) held at 40 °C. […] Cannabidiol was detected in positive electrospray ionization mode using multiple reaction monitoring.
For the peak separations of kratom alkaloids required for quantification, a 1.7 µm, […] × 100 mm C18 BEH column with a pre-column of the same chemistry (Waters, Milford, MA, USA) was utilized and held at 50 °C throughout the analysis. […] The alkaloids were detected in positive electrospray ionization mode using multiple reaction monitoring. […]

Details of data set [2]: method as in PMID 33620222. The conditions noted are these: minor kratom alkaloid/metabolite in plasma; single oral dose of kratom product alone; n = 4; mean ± SEM; cited from earlier work.
On the set-up of data set [3]: method as in PMID 31838282. Conditions: cited from earlier work.

Like-named read-outs stand apart in the source and are kept apart here.

corynantheidine: in data set [1], the “AUC0–24” value is 195.9 ± 111.1 ng·h/mL; the Cmax (usually the highest concentration seen after dosing) is given as 12.9 ± 2.0 ng/mL; the Tmax (as a rule, the time from dosing to the highest level) came to 12.6 ± 11.4 h. For the same substance, in data set [2], the “AUC0–24” value was 30.4 ± 9.1 ng·h/mL, the Cmax is reported as 3.1 ± 0.5 ng/mL and the Tmax is reported as 3.1 ± 1.7 h. Further, the oral bioavailability in data set [3] is listed as 50%.
